Test results as given in ChEMBL document CHEMBL3639096, “Bivalent inhibitors of IAP proteins and therapeutic methods using the same” (2014).

Protein sequences, listed by entry. Tags and fused reporters are not part of them.
UniProt P98170, whole entry: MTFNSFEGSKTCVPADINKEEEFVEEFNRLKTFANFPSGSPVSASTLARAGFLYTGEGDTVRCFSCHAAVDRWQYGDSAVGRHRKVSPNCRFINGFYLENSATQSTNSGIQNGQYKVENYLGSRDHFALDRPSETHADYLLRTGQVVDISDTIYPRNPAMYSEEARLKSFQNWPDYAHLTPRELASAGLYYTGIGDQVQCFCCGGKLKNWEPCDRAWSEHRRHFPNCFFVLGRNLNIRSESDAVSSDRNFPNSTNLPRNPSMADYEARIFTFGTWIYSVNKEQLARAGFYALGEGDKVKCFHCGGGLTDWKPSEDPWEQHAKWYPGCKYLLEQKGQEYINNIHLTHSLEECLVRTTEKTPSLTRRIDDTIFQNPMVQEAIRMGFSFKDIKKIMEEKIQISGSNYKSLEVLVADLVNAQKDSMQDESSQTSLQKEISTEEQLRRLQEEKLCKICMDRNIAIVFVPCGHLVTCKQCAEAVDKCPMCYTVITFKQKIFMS

Columns and labels:
Assay in all cases: Fluorescence Polarization (FP) Based Competitive Assay: Binding affinities of the present compounds to XIAP linker-BIR2-BIR3 (residues 120-356), cIAP1-BIR3 (residues 253-363), and cIAP-2 BIR3 (residues 238-349) proteins were determined by fluorescence polarization (FP) based competitive assays. For cIAP-1 BIR3 and cIAP-2 BIR3 assays, a fluorescently labeled Smac mimetic (Smac-2F) was used as the …
[1] = target: Baculoviral IAP repeat-containing protein 2 (Homo sapiens, UniProt Q13490)
[2] = target: Baculoviral IAP repeat-containing protein 3 (Homo sapiens, UniProt Q13489)
[3] = target: E3 ubiquitin-protein ligase XIAP (Homo sapiens, UniProt P98170)

CN[C@@H](C)C(=O)N[C@H]1CN(C(=S)Nc2ccc(NC(=S)N3CC[C@H]4CC[C@@H](C(=O)NC(c5ccccc5)c5ccccc5)N4C(=O)[C@@H](NC(=O)[C@H](C)NC)C3)cc2)CC[C@H]2CCC(C(=O)NC(c3ccccc3)c3ccccc3)N2C1=O (stereo partly drawn)
IC50 [1]: < 300 nM | IC50 [2]: < 300 nM | IC50 [3]: < 30 nM
